These results are taken from article PMC12102759 (Protein Science : A Publication of the Protein Society, 2025).

The chains behind the UniProt entries cited, without tags or fusion partners. Residues count along the entry.
UniProt Q9Y490, 309-401: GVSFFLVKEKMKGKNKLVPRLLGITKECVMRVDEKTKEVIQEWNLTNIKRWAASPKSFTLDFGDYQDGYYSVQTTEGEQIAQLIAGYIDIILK

The experiment concerns the target TLN1 PTB (Homo sapiens, UniProt Q9Y490). The experiment is classed as binding.

As for “FPTDERSWVYSPLHYS H14T (FPTDERSWVYSPLTYS)”, the “DMS-derived PSSM value of the single-substitution variant” value (shortened to “DMS-derived PSSM value”) is reported as 0.2136.
In the case of “FPTDERSWVYSPLHYS H14V (FPTDERSWVYSPLVYS)” it was 0.06265; in that of “FPTDERSWVYSPLHYS H14W (FPTDERSWVYSPLWYS)”, 0.009247; in that of “FPTDERSWVYSPLHYS H14Y (FPTDERSWVYSPLYYS)”, 0.02017.
Regarding “FPTDERSWVYSPLHYS L13A (FPTDERSWVYSPAHYS)”, the “DMS-derived PSSM value” value amounted to 0.02593.
In the case of “FPTDERSWVYSPLHYS L13D (FPTDERSWVYSPDHYS)” it was 0.
In the case of “FPTDERSWVYSPLHYS L13E (FPTDERSWVYSPEHYS)” it was 0.
The value for “FPTDERSWVYSPLHYS L13F (FPTDERSWVYSPFHYS)” was 0.05572; that for “FPTDERSWVYSPLHYS L13G (FPTDERSWVYSPGHYS)” was 0.02955.
As for “FPTDERSWVYSPLHYS L13H (FPTDERSWVYSPHHYS)”, the “DMS-derived PSSM value” value is reported as 0.004675.
In the case of “FPTDERSWVYSPLHYS L13I (FPTDERSWVYSPIHYS)” it was 0.1109; in that of “FPTDERSWVYSPLHYS L13K (FPTDERSWVYSPKHYS)”, 0.002338.
The value for FPTDERSWVYSPLHYS L13L was 0.02907; that for “FPTDERSWVYSPLHYS L13M (FPTDERSWVYSPMHYS)” was 0.1321.
With “FPTDERSWVYSPLHYS L13N (FPTDERSWVYSPNHYS)”, the “DMS-derived PSSM value” value came out at 0.01059.
The value for “FPTDERSWVYSPLHYS L13P (FPTDERSWVYSPPHYS)” was 0.002338; that for “FPTDERSWVYSPLHYS L13Q (FPTDERSWVYSPQHYS)” was 0.01142.
The value for “FPTDERSWVYSPLHYS L13R (FPTDERSWVYSPRHYS)” was 0.004675; that for “FPTDERSWVYSPLHYS L13S (FPTDERSWVYSPSHYS)” was 0.04078; that for “FPTDERSWVYSPLHYS L13T (FPTDERSWVYSPTHYS)” was 0.007563.
As to “FPTDERSWVYSPLHYS L13V (FPTDERSWVYSPVHYS)”, the “DMS-derived PSSM value” value is on record as 0.04234.
The value for “FPTDERSWVYSPLHYS L13W (FPTDERSWVYSPWHYS)” was 0.3931; that for “FPTDERSWVYSPLHYS L13Y (FPTDERSWVYSPYHYS)” was 0.09699; that for FPTDERSWVYSPLHYS P2A (FATDERSWVYSPLHYS) was 0.01047.
For the sequence FPTDERSWVYSPLHYS P2D (FDTDERSWVYSPLHYS), the “DMS-derived PSSM value” value was 0.1938.
In the case of FPTDERSWVYSPLHYS P2E (FETDERSWVYSPLHYS) it was 0.04643.
The value for FPTDERSWVYSPLHYS P2F (FFTDERSWVYSPLHYS) was 0.006141; that for FPTDERSWVYSPLHYS P2G (FGTDERSWVYSPLHYS) was 0.02423.
On to FPTDERSWVYSPLHYS P2H (FHTDERSWVYSPLHYS), for which the “DMS-derived PSSM value” value was determined as 0.006141.
The value for FPTDERSWVYSPLHYS P2I (FITDERSWVYSPLHYS) was 0.004328; that for FPTDERSWVYSPLHYS P2K (FKTDERSWVYSPLHYS) was 0.002675.
For the sequence FPTDERSWVYSPLHYS P2L (FLTDERSWVYSPLHYS), the “DMS-derived PSSM value” value is reported as 0.2108.
The value for FPTDERSWVYSPLHYS P2M (FMTDERSWVYSPLHYS) was 0.07329.
